# Experimental data taken from patent publication US7368471B2, “Substituted indole acid derivatives as inhibitors of plasminogen activator inhibitor-1 (PAI-1)” (Wyeth, priority 2001, dated 2008).
# Sequences of proteins named here, by UniProt entry; tags and fusion partners are left off. Residues count along the entry.
# UniProt P05121, 24-402: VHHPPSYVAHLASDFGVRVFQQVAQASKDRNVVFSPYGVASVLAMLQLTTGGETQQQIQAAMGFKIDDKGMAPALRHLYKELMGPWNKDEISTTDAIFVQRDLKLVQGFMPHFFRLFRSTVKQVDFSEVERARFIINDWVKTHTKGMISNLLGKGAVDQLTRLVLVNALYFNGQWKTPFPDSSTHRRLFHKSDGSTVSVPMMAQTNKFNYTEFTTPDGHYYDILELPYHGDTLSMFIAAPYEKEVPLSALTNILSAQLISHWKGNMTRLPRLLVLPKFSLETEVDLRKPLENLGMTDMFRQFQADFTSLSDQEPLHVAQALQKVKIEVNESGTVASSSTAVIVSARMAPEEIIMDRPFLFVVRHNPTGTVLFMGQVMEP
# pIC50: −log10 of the molar value.
# Biological target: human PAI-1 (Homo sapiens, UniProt P05121)
# Test: Antibody Assay for Determining IC50 of Inhibition of PAI-1 (active PAI-1 bound to tPA-coated plate, 33B8 antibody)
# Type: binding
# Conditions: footnote a: determined by the Antibody Assay
# Description: Assay for Determining IC50 of Inhibition of PAI-1
# This assay is based upon the non-SDS dissociable interaction between tPA and active PAI-1. Assay plates are initially coated with human tPA (10 μg/ml). Test compounds are dissolved in DMSO at 10 mM, then diluted with physiologic buffer (pH 7.5) to a final concentration of 1-50 μM. Test compounds are incubated with human PAI-1 (50 ng/ml) for 15 minutes at room temperature. The tPA-coated plate is washed with a solution of 0.05% Tween 20 and 0.1% BSA, then the plate is blocked with a solution of 3% BSA. An aliquot of the test compound/PAI-1 solution is then added to the tPA-coated plate, incubated at room temperature for 1 hour, and washed. Active PAI-1 bound to the plate is assessed by adding an aliquot of a 1:1000 dilution of the 33B8 monoclonal antibody against human PAI-1, and incubating the plate at room temperature for 1 hour (Molecular Innovations, Royal Oak, Mich.). […] The plate is incubated 45 minutes at room temperature, and color development is determined at OD405nm. The quantitation of active PAI-1 bound to tPA at varying concentrations of the test compound is used to determine the IC50. Results are analyzed using a logarithmic best-fit equation. The assay sensitivity is 5 ng/ml of human PAI-1 as determined from a standard curve ranging from 0-100 ng/ml.
smiles,measurement,value
"O=C(O)C(=O)c1cn(Cc2ccccc2)c2ccc(-c3ccc(OC(F)(F)F)cc3)cc12 [Example 12, {1-Benzyl-5-[4-(trifluoromethoxy)phenyl]-1H-indol-3-yl}(oxo)acetic acid]",pIC50,5.57
